Results on 2 substances are retold here after PMC10744302.

Test [1] deals with CCR5 I3-1,2,3-Rluc (human) (UniProt P51681). Put plainly: FRET or BRET; BRET saturation assay in living HEK-293 cells: constant amount of Rluc donor plasmid (CCR5 or mutant), increasing amounts of YFP acceptor plasmid; coelenterazine h 5 µM; BRET50 = YFP/Rluc ratio at 50% saturation, one-site fit. For orientation: Bioluminescence resonance energy transfer reports proximity on the nanometre scale.

Test [2] has as its target CCR5-Rluc (wild-type human CCR5, HA-tagged, fused upstream of Renilla luciferase) (human) (UniProt P51681). The description is as above.

“CD4-YFP (from UniProt P01730 26-458) (receptor)”: the BRET50 (YFP/Rluc ratio) in test [1] was 20.5.

Take “CD4-YFP (from UniProt P01730 26-458) (receptor; other documents disagree on this pair)”: in test [2], the BRET50 (YFP/Rluc ratio) was found to be 4.9.
